According to patent US7186530B1, “Protein associated with cell stress response” (Chiron Corporation, priority 2000, dated 2007):

System: p46 hyperphosphorylation
Test: p46 (Nogo B) hyperphosphorylation after UVC irradiation in presence of inhibitors, Western blot with SC-54
Assay type: cell-based, human
Protocol: FIG. 5. […] Then cells were irradiated with 20 J/m^2 of UVC and lysed 30 minutes later. Whole cell lysates were separated on SDS-PAGE. SC-54 was used for Western Blotting.
Cell culture and treatment. Normal human fibroblast IMR90 was purchased from American Type Culture Collection (Manassas, Va.). Cells were routinely cultured in Dulbecco's Modified Eagle's Medium (DMEM) containing 10% fetal bovine serum, 2 mM L-glutamine, 4.5 g/liter glucose, 100 units penicillin and 100 μg streptomycin at 37° C. under an atmosphere of 5% CO2. For UV irradiation, cells were washed twice with phosphate-buffered saline (PBS) and then irradiated with appropriate doses of UVC (254 nm). Fresh complete medium was added back and cells were lysed at appropriate times. For treatment with BPDE, cells were washed with PBS twice and fresh DMEM was added. BPDE was dissolved in anhydrous dimethyl sulfoxide (DMSO) and appropriate amount of BPDE solution was added to DMEM. Cells were lysed 30 minutes later.
Western Blotting. Lysates prepared from equal number of cells were mixed with equal volume of 2× sample buffer (50 mM Tris.HCl, pH 6.9, 9% glycerol, 2.3% SDS, 0.1% bromophenol blue and 10% mecaptoethanol) and the proteins were separated on a SDS/polyacrylamide gel. The proteins were then electroblotted onto an Immobilon-P membrane (Millipore, Bedford, Mass.). […]

Compound: O=[N+]([O-])c1ccc(-c2nc(-c3ccncc3)c(-c3ccc(F)cc3)[nH]2)cc1 [PD169316]
- hyperphosphorylation of Nogo: abolished
- p46 hyperphosphorylation: almost completely abolished
